Assay results reported in patent US4594342A, “1,5-benzothiazepine derivative” (priority 1984, dated 1986).
≈ marks a conversion by molar mass, not a printed value.

Experiments:
Rat platelets = test: Inhibitory effects in vitro on collagen-induced platelet aggregation of rat platelets (Experiment 1); format: cell-based
Description: (§1) (Inhibitory effects in vitro on collagen-induced platelet aggregation of rat or human platelets)
(§2) The bottom layer was further centrifuged to give platelet-poor plasma ("PPP") as the supernatant solution. Platelet counts were adjusted to about 0.8-1×10^6 /mm^3 for rat PRP and about 4×10^5 /mm^3 for human PRP by dilution with PPP.

Human platelets = test: Inhibitory effects in vitro on collagen-induced platelet aggregation of human platelets (Experiment 1); format: cell-based
Description: as §1, §2

For `CC(=O)Oc1ccccc1C(=O)O` [Acetylsalicylic acid, reference compound], the IC50 (Rat platelets; Rattus norvegicus, Platelet, read-out: IC50 (concentration of test compound required to induce 50% inhibition of collagen-induced platelet aggregation)) was ~45 µg/mL (≈ 250 µM), the “IC50 (concentration of test compound required to induce 50% inhibition of collagen-induced platelet aggregation)” value (Rat platelets; rat platelets, in vitro, rat PRP, collagen-induced, 37° C.) was “about 45 μg/ml” and the IC50 (Human platelets; Homo sapiens, Platelet, read-out: IC50 (concentration of test compound required to induce 50% inhibition of collagen-induced platelet aggregation)) was ~20 µg/mL (≈ 111 µM). For the same compound, the “IC50 (concentration of test compound required to induce 50% inhibition of collagen-induced platelet aggregation)” value (Human platelets; human platelets, in vitro, human PRP, collagen-induced, 37° C.) was “about 20 μg/ml”.
